Results taken from ChEMBL document CHEMBL1138044, “4-amido-2-aryl-1,2,4-triazolo[4,3-a]quinoxalin-1-ones as new potent and selective human A3 adenosine receptor antagonists. synthesis, pharmacological evaluation, and ligand-receptor modeling studies” (J Med Chem, 2006).

Test system: Adenosine receptor A2a (Bos taurus)
Test: Inhibition of [3H]CGS 21680 binding to adenosine A2A receptor in bovine striatal membranes at 10 uM
Settings: Striatum, Membrane

Point of comparison: `O=C(c1ccccc1)N(C(=O)c1ccccc1)c1nc2ccccc2n2c(=O)n(-c3ccccc3)nc12`, inhibition 19%. Against it:
- COc1ccc(-n2nc3c(NC(C)=O)nc4c(N)cccc4n3c2=O)cc1 — higher, 20%
- COc1ccc(-n2nc3c(NC(=O)C(c4ccccc4)c4ccccc4)nc4ccccc4n3c2=O)cc1 — higher, 28.5%
- COc1ccc(-n2nc3c(NC(=O)c4ccccc4)nc4c(N)cccc4n3c2=O)cc1 — lower, 16%
- COc1ccc(-n2nc3c(N(C(=O)c4ccccc4)C(=O)c4ccccc4)nc4c([N+](=O)[O-])cccc4n3c2=O)cc1 — lower, 0%
- COc1ccc(-n2nc3c(NC(C)=O)nc4ccccc4n3c2=O)cc1 — lower, 0%

Biological target: Adenosine receptor A2a (Homo sapiens, UniProt P29274)
Test: Inhibition of [3H]NECA binding to human adenosine A2A receptor at 10 uM
Settings: not given

`COc1ccc(-n2nc3c(NC(=O)C(c4ccccc4)c4ccccc4)nc4ccccc4n3c2=O)cc1` was tested, and the inhibition was 27%.
